{
  "source": "patent US20050003341A1",
  "about": "“Drug discovery assays based on the biology of atherosclerosis, cancer, and alopecia” (priority 2003, published 2005)",
  "origin": "cited, not measured here",
  "key": {"[1]": {"system": "ERK"}, "[2]": {"system": "AR mRNA", "conditions": "500 ng/ml, 60 minutes"}},
  "note": "Like-named read-outs stand apart in the source and are kept apart here.",
  "data": [
    {"substance": "FSH: follicle-stimulating hormone", "values": [
      {"measurement": "ERK phosphorylation", "setting": "[1]; Sertoli cells from 19-day-old rats, 100 ng/ml, 15 minutes", "value": "inhibition"},
      {"measurement": "ERK phosphorylation", "setting": "[1]; oocytes and granulosa cells, dose dependent", "value": "stimulates"},
      {"measurement": "AR mRNA", "setting": "[2]", "value": "increase"}
    ]}
  ]
}
